Measured values reported in patent US7189858B2, “N-phenyl substituted carbamoyloxyalkyl-azolium derivatives” (Basilea Pharmaceutica AG, priority 1999, dated 2007).

Test: Solubility (Table 1)
Details: solvent a = distilled water

Substance: 1-[[N-methyl-N-2-(methylamino)acetoxymethyl-3-methyl-phenyl]carbamoyloxy]ethyl-1-[(2R,3R)-2-(2,5-difluorophenyl)-2-hydroxy-3-[4-(4-cyanophenyl)thiazol-2-yl]butyl]-1H-[1,2,4]triazol-4-ium iodide hydrochloride [Example 7.21.]
- Solubility: >10000 µg/mL
